Laboratory results reported in patent publication US9221832B2, “Heterocyclic amide derivatives as P2X7 receptor antagonists” (ACTELION PHARMACEUTICALS LTD., priority 2011, dated 2015).

Amino acid sequences for entries named in this document (tags omitted). A change or cut given only in a name is not applied to a line headed by its entry.
UniProt Q99572: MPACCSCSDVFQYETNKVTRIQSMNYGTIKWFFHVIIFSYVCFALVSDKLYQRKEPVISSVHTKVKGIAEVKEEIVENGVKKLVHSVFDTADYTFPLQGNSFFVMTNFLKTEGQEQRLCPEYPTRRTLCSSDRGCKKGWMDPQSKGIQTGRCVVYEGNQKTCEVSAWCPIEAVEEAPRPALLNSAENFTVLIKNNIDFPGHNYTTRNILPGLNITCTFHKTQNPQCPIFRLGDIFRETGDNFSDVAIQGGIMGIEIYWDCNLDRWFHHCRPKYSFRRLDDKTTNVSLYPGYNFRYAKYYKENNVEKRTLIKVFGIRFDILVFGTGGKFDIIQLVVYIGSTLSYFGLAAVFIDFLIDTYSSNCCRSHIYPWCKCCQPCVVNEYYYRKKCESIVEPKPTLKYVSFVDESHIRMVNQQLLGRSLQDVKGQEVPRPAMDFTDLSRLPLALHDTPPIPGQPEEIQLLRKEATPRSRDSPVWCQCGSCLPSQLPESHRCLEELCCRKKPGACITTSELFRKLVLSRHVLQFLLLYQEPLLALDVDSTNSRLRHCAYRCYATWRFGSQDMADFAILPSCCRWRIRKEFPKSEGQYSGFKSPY

Target: human recombinant P2X7 receptor (Homo sapiens (Human), UniProt Q99572)
Test: YO-PRO assay: P2X7 receptor antagonistic activity
Assay type: cell-based
Conditions: HEK cells expressing human P2X7
Method: The P2X7 receptor antagonistic activity of the compounds of formula (I) is determined in accordance with the following experimental method.
Cell Line Generation and YO-PRO Assay
Cell line generation was performed in general according to established molecular cloning protocols. Specifically, RNA was extracted from human whole blood using the Qiagen RNeasy kit (Qiagen, CH) according to the manufacturer's instructions. Subsequently cDNA was made (Superscript II, Invitrogen AG, CH) and the human P2X7 gene (genbank ref. BC011913) was amplified with the following primers: […] and […]. The amplified sequence was subsequently ligated into a pcDNA3.1 (+) NotI, NheI digested plasmid. […] Following a 24 h exposure to DNA, cells were trypsinized and re-seeded at low density in the presence of 250 μg Geneticin. Geneticin resistant cells were then selected during two consecutive rounds of cloning by serial limiting dilution with visual inspection. Individual clones were screened for P2X7 expression by applying ATP and recording the resultant uptake of YO-PRO1. Specific cell clones were chosen based on RNA and protein expression. HEK cells stably expressing P2X7 were used to screen drugs using the YO-PRO1 assay. Cells were grown to confluency in adherent culture at 37° C. in a humidified 5% CO2 incubator (split 1/5 every 3-4 days with DMEM, 10% FCS, 1% Penicillin/Streptomycin, 250 μg/ml Geneticin). Adherent cells were detached by incubation with Trypsine (1 ml per 165 cm^2 dish) for 2 minutes, then washed off with 10 ml PBS (without Mg^2+ and Ca^2+), and resuspended in DMEM, 10% FCS, 1% Penicillin/Streptomycin, no Geneticin. […] During this time period, four time points were taken. Each time point comprised the average of several measurements made within a few seconds. […] The FLIPR tetra was equipped with Molecular Devices Screen Works system control software to define and run experimental protocols. […] For IC50 measurements the maximum intensity is plotted against the concentration of compound to determine IC50 values.

Structure (SMILES)	IC50 [µM]
O=C(Cc1ccc(Cl)cc1Cl)NC1COc2ncccc21 (racemic) [Example 1, rac-2-(2,4-Dichloro-phenyl)-N-(2,3-dihydro-furo[2,3-b]pyridin-3-yl)-acetamide]	0.033
O=C(Cc1ccc(F)cc1Cl)NC1COc2ncccc21 (racemic) [Example 2, rac-2-(2-Chloro-4-fluoro-phenyl)-N-(2,3-dihydro-furo[2,3-b]pyridin-3-yl)-acetamide]	0.103
O=C(Cc1ccc(Cl)cc1Cl)NC1CCOc2ncccc21 (racemic) [Example 9, rac-2-(2,4-Dichloro-phenyl)-N-(3,4-dihydro-2H-pyrano[2,3-b]pyridin-4-yl)-acetamide]	0.144
O=C(NC1COc2ncccc21)C1(c2ccc(Cl)cc2Cl)CC1 (racemic) [Example 24, rac-1-(2,4-Dichloro-phenyl)-cyclopropanecarboxylic acid (2,3-dihydro-furo[2,3-b]pyridin-3-yl)-amide]	0.133
O=C(NC1COc2ncccc21)C1(c2ccc(F)cc2Cl)CCCC1 (racemic) [Example 25, rac-1-(2-Chloro-4-fluoro-phenyl)-cyclopentanecarboxylic acid (2,3-dihydro-furo[2,3-b]pyridin-3-yl)-amide]	0.151
CC(C)(C(=O)NC1COc2ncccc21)c1ccc(Cl)cc1 (racemic) [Example 26, rac-2-(4-Chloro-phenyl)-N-(2,3-dihydro-furo[2,3-b]pyridin-3-yl)-isobutyramide]	2.77
O=C(Cc1cccc(C(F)(F)F)c1)NC1CCOc2ncccc21 (racemic) [Example 47, rac-N-(3,4-Dihydro-2H-pyrano[2,3-b]pyridin-4-yl)-2-(3-trifluoromethyl-phenyl)-acetamide]	1.38
O=C(Cc1cccc(Cl)c1Cl)NC1COc2ncccc21 (racemic) [Example 66, rac-2-(2,3-Dichloro-phenyl)-N-(2,3-dihydro-furo[2,3-b]pyridin-3-yl)-acetamide]	0.02
O=C(Cc1ccc(Cl)cc1Cl)NC1COc2cnccc21 (racemic) [Example 83, rac-2-(2,4-Dichloro-phenyl)-N-(2,3-dihydro-furo[2,3-c]pyridin-3-yl)-acetamide]	0.015
O=C(Cc1ccc(Cl)cc1Cl)NC1COc2ncccc21 (single isomer, unassigned) [Example 3, 2-(2,4-Dichloro-phenyl)-N-(2,3-dihydro-furo[2,3-b]pyridin-3-yl)-acetamide]	0.042
O=C(Cc1ccc(Cl)cc1Cl)NC1COc2ncccc21 (single isomer, unassigned) [Example 4, 2-(2,4-Dichloro-phenyl)-N-(2,3-dihydro-furo[2,3-b]pyridin-3-yl)-acetamide]	0.04
O=C(Cc1ccc(Cl)cc1Cl)NC1CCOc2ncccc21 (single isomer, unassigned) [Example 30, 2-(2,4-Dichloro-phenyl)-N-(3,4-dihydro-2H-pyrano[2,3-b]pyridin-4-yl)-acetamide]	0.177

Now from value to molecule:

IC50 [µM]	Structure (SMILES)
3.46	O=C(CCc1ccc(Cl)cc1Cl)NC1COc2ncccc21 (racemic) [Example 27, rac-3-(2,4-Dichloro-phenyl)-N-(2,3-dihydro-furo[2,3-b]pyridin-3-yl)-propionamide]
0.496	O=C(Cc1ccc(F)cc1Cl)NC1CCOc2ncccc21 (racemic) [Example 38, rac-2-(2-Chloro-4-fluoro-phenyl)-N-(3,4-dihydro-2H-pyrano[2,3-b]pyridin-4-yl)-acetamide]
1.32	O=C(Cc1ccc(Cl)cc1C(F)(F)F)NC1CCOc2ncccc21 (racemic) [Example 53, rac-2-(4-Chloro-2-trifluoromethyl-phenyl)-N-(3,4-dihydro-2H-pyrano[2,3-b]pyridin-4-yl)-acetamide]
1.27	O=C(Cc1ccc(Cl)c(Cl)c1)NC1CCOc2ncccc21 (racemic) [Example 55, rac-2-(3,4-Dichloro-phenyl)-N-(3,4-dihydro-2H-pyrano[2,3-b]pyridin-4-yl)-acetamide]
0.489	O=C(Cc1c(Cl)cc(Cl)cc1C(F)(F)F)NC1CCOc2ncccc21 (racemic) [Example 56, rac-2-(2,4-Dichloro-6-trifluoromethyl-phenyl)-N-(3,4-dihydro-2H-pyrano[2,3-b]pyridin-4-yl)-acetamide]
0.009	O=C(Cc1cccc(C(F)(F)F)c1Cl)NC1COc2nnccc21 (racemic) [Example 109, rac-2-(2-Chloro-3-trifluoromethyl-phenyl)-N-(5,6-dihydro-furo[2,3-c]pyridazin-5-yl)-acetamide]
0.063	Cc1cc2c(cn1)OCC2NC(=O)Cc1cccc(C(F)(F)F)c1Cl (racemic) [Example 117, rac-2-(2-Chloro-3-trifluoromethyl-phenyl)-N-(5-methyl-2,3-dihydro-furo[2,3-c]pyridin-3-yl)-acetamide]
0.184	O=C(Cc1ccc(Cl)cc1Cl)NC1CCOc2ncccc21 (single isomer, unassigned) [Example 31, 2-(2,4-Dichloro-phenyl)-N-(3,4-dihydro-2H-pyrano[2,3-b]pyridin-4-yl)-acetamide]
0.045	[2H]C([2H])([2H])C(C(=O)NC1COc2ncccc21)c1cccc(C(F)(F)F)c1Cl (stereo not shown) [Example 126, 2-(2-Chloro-3-trifluoromethyl-phenyl)-2-trideuteromethyl-N-2,3-dihydro-furo[2,3-b]pyridin-3-yl-acetamide]
2.33	O=C(NC1COc2ncccc21)C1CCc2cc(Cl)ccc21 (stereo not shown) [Example 145, 5-chloro-N-(2,3-dihydrofuro[2,3-b]pyridin-3-yl)-2,3-dihydro-1H-indene-1-carboxamide]
